Binding of CDR-mutated scFvs to a peptide of the spike HR2 region

Values reported by Li et al. 2023, doi:10.1038/s41467-023-39022-2 (FLAb copy).

Antigen: PDVDLGDISGINAS, a 14-residue peptide of the SARS-CoV-2 spike HR2 region.

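These sequences belong to a second round, designed from the earlier measurements on random variants of the parent. Several design methods are mixed in this list. In AlphaSeq, yeast of one mating type display the scFv and yeast of the other type display the target. Pairs that bind mate more often; barcode pairs of the diploids are counted by sequencing. Scores were corrected for input abundance and mapped to Kd with protein pairs of known affinity run in the same pool. The assay was run in six technical replicates.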

Parent: Ab-14, a human scFv built as VH, three GGGGS repeats, VL. Only the CDRs of the heavy chain vary.
VH: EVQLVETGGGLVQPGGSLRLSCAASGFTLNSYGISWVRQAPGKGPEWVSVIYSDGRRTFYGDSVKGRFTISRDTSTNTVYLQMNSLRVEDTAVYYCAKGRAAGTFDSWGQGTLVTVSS
VL: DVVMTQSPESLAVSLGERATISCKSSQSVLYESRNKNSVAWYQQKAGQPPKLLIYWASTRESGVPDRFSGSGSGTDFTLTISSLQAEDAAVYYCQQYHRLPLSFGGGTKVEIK

Variants are written as CDR1, CDR2 and CDR3 of the heavy chain (limits as in the source). Parent: GFTLNSYGIS, VIYSDGRRTFYGDSVK, GRAAGTFDS.
Variants here have more than six changes.
Values are apparent Kd, the geometric mean of the replicates that gave a signal; lower means stronger binding.
"not detected" means that the variant was in the library but no mating with the target was seen in any replicate; the authors take this as a sign of poor binding, and no number exists.
The authors averaged sequences with at least three values out of six and counted those with two or fewer as poor binders.
The range of this assay differs from that of the first round, and the authors advise against merging the two.
Of ten entries with the parent sequence, four were seen in most replicates (averages 2.2 nM to 240 nM), three in one and three in none, so single entries are noisy.
Empty control strains, which show no peptide, gave a signal in 1% of pairings with all heavy chain designs; the median was 120 nM and 95% of these signals were weaker than 7.0 nM. No background was subtracted. The control count says in how many pairings with the empty strains this scFv gave a signal.

CDR-H1	CDR-H2	CDR-H3	Kd	detected	control signals
GFDLNEYGIS	VIYADGRRQAYADSVK	GENAGTFDV	not detected	0 of 6	0 of 18
GFDLNEYGIS	VIYADGKRTQYIDSVK	GNQAGTFDS	1.9 nM	6 of 6	0 of 18
GFDINDYGIS	VIYADGLRTSVSTNFK	GIIAGTFTS	1.1 nM	6 of 6	0 of 18
GFDVNEYGIS	VIYADGRRTQYTDAVK	GKNNMVLFV	not detected	0 of 6	0 of 18
GFDLNEYGIS	VIYADGMRTFYADSVK	GNIAGTFDS	1.1 nM	6 of 6	0 of 18
GFDLNEYGIS	VIYADGRRTAYADSVK	GKNAGTILV	not detected	0 of 6	0 of 18
GFDLNEYGIS	VIYADGVRTFYADSVK	GKNAGTFLV	12 nM	6 of 6	0 of 18
GFDLNEYGIS	VIYADGMRTAYADSVK	GNVGGTFDI	390 pM	6 of 6	0 of 18
GFDLDEYGVS	VIYADGRRKKYADSVK	GTNGGTINA	84 nM	1 of 6	0 of 18
GFDLNEYGIS	VIYADGSRTAYADSVK	GENAGTFDM	1.4 nM	6 of 6	0 of 18
GFDLNEYGIS	VIYADGMRTSYADSVK	GNNAGTFDL	1.5 nM	6 of 6	0 of 18
GFVLDEYGIS	VIYADGKRQVYQDKVK	GKGTGNFDT	not detected	0 of 6	0 of 18
GFDLNEYGIS	VIYADGMRTAYADDVK	GEVAGTFDT	220 pM	6 of 6	0 of 18
GFDLNEYGIS	VIYADGVRTAYADSVK	GQTAGTFDI	290 pM	6 of 6	0 of 18
GKSLDEYGIS	VIYADGLRKVYANSVK	GQFDDAMDL	7.5 µM	1 of 6	0 of 18
GFDLNEYGIS	VIYADGMRTSYVDSVK	GENAGTFDV	750 pM	6 of 6	0 of 18
GFDLNEMGIS	VIYADGRRVAYNDKVK	GNLTGTFDQ	not detected	0 of 6	0 of 18
GFDLNEYGIS	VIYADGVRTAYADSVK	GANAGTFDM	440 pM	6 of 6	0 of 18
GFDLNEYGIS	VIYADGRRTFYADSVK	GEVAGTFLS	1.2 nM	6 of 6	0 of 18
GFLIEEYGIS	VIYADGVRKAYVNSFK	GEVGGTFTN	13 nM	6 of 6	1 of 18
GFDLNEYGIS	VIYADGMRTAYADDVK	GNEAGTFDI	490 pM	6 of 6	0 of 18
GFDLNEYGIS	VIYADGMRTFYADSVK	GNTAGTFDI	340 pM	1 of 6	0 of 18
GFDLNEYGIS	VIYADGSRTVYADSVK	GNVAGTFDM	140 pM	6 of 6	0 of 18
GFDLNEYGIS	VIYADGRRTAYSDSVK	GGNAGFFDQ	200 nM	1 of 6	1 of 18
GFDLDEYGIS	VIYADGVRTAYADSVK	GNVAGTFDM	1.1 nM	6 of 6	1 of 18
GKNLDEYGVS	VIYADGKRTQYTNNFK	GTNAGFFMS	not detected	0 of 6	0 of 18
GYDINEYGIS	VIYADGQRTSYVQSVK	GAGDITGLV	not detected	0 of 6	1 of 18
GFDLDEYGIS	VIYADGMRTFYADSVK	GSNAGTFDM	650 pM	6 of 6	0 of 18
GFDLNEYGVS	VIYADGSRASYADKVK	GLNFGQLIV	not detected	0 of 6	0 of 18
GFDLNEYGIS	VIYADGVRTFYSDSVK	GQTAGTFDA	240 pM	6 of 6	0 of 18
GFDLNEYGIS	VIYADGMRTAYTDSVK	GNEAGTFDV	270 pM	6 of 6	0 of 18
GFDLDEYGIS	VIYADGKRTAYADSVK	GNVAGTFDA	4.7 nM	6 of 6	0 of 18
GFDLEDYGIS	VIYADGKRTAYSDSVK	GNVAGTFDV	2.0 nM	6 of 6	0 of 18
GFDLDEYGIS	VIYADGKRKAYADSVK	GENAGTFDV	380 pM	6 of 6	0 of 18
GFEVEEYGIS	VIYADGRRVAYAKDVK	GMNFDGIVV	not detected	0 of 6	0 of 18
GFDLDEYGIS	VIYADGRRTFYSDSVK	GNVAGTFDV	190 pM	6 of 6	0 of 18
GFSLDEYGIS	VIYADGRRTFYADSVK	GNVAGTFDL	25 pM	6 of 6	0 of 18
GNSLDEYGIS	VIYADGMRTAYTDAFK	GVGSNTLVD	not detected	0 of 6	0 of 18
GFDLSEYGIS	VIYADGMRTAYADSVK	GNQAGTFDV	510 pM	6 of 6	1 of 18
GDGLKEYGIS	VIYADGMRTSYVNDVK	GQKSGGFNL	not detected	0 of 6	0 of 18
GFDLNEYGIS	VIYADGVRTAYADKVK	GTNAGTFDV	930 pM	6 of 6	0 of 18
GFQLDEYGIS	VIYADGNRTQYLENVK	GTNWGNVDL	not detected	0 of 6	0 of 18
GFDLNEYGIS	VIYADGVRTFYADSVK	GEIAGTFDF	310 pM	6 of 6	0 of 18
GFDLEDYGIS	VIYADGRRTFYADSVK	GEIAGTFDI	940 pM	6 of 6	0 of 18
GFDLNEYGIS	VIYADGKRTAYADSVK	GNVAGTFDV	360 pM	6 of 6	0 of 18
GFDLNEYGIS	VIYADGMRTFYADSVK	GQLAGTFDV	63 pM	6 of 6	0 of 18
GFNLEDYGIS	VIYADGKRQAYTENVK	CHSDGIMVV	14 nM	6 of 6	1 of 18
GFDLDEYGIS	VIYADGVRTAYADSVK	GNNAGTFDV	390 pM	6 of 6	0 of 18
GFTLSEYGIS	VIYADGVRVEYTDSVK	GQLGGSFLV	530 nM	1 of 6	0 of 18
GFDLNEYGIS	VIYADGRRTFYVDSVK	GNLAGTFDQ	210 pM	6 of 6	0 of 18
GFGLDEYGIS	VIYADGRRTFYADSVK	GNVAGTFDQ	300 pM	6 of 6	0 of 18
GFVLDEYGIS	VIYADGKRQVYQDKVK	GEGTGNFDT	not detected	0 of 6	0 of 18
GFSIDEYGIS	VIYADGIRASYAPKVK	GQYAGDFIE	not detected	0 of 6	0 of 18
GFDLDEYGIS	VIYADGMRTAYADSVK	GGNAGTFDQ	2.6 nM	6 of 6	0 of 18
GFDLQEYGIS	VIYADGKRTAYIQKVK	GQIVGGQFD	not detected	0 of 6	0 of 18
GFDLDEYGIS	VIYADGVRTAYADSVK	GGNAGTFDI	830 pM	6 of 6	0 of 18

7 of these entries, quoted again:

{"CDR-H1": "GFDLNEYGIS", "CDR-H2": "VIYADGVRTFYSDSVK", "CDR-H3": "GQTAGTFDA", "Kd": "240 pM", "detected": "6 of 6", "control signals": "0 of 18"}
{"CDR-H1": "GFDLDEYGIS", "CDR-H2": "VIYADGVRTAYADSVK", "CDR-H3": "GNNAGTFDV", "Kd": "390 pM", "detected": "6 of 6", "control signals": "0 of 18"}
{"CDR-H1": "GFDLNEMGIS", "CDR-H2": "VIYADGRRVAYNDKVK", "CDR-H3": "GNLTGTFDQ", "Kd": "not detected", "detected": "0 of 6", "control signals": "0 of 18"}
{"CDR-H1": "GFDLNEYGIS", "CDR-H2": "VIYADGVRTFYADSVK", "CDR-H3": "GEIAGTFDF", "Kd": "310 pM", "detected": "6 of 6", "control signals": "0 of 18"}
{"CDR-H1": "GFDLDEYGIS", "CDR-H2": "VIYADGVRTAYADSVK", "CDR-H3": "GGNAGTFDI", "Kd": "830 pM", "detected": "6 of 6", "control signals": "0 of 18"}
{"CDR-H1": "GFDLNEYGIS", "CDR-H2": "VIYADGMRTSYADSVK", "CDR-H3": "GNNAGTFDL", "Kd": "1.5 nM", "detected": "6 of 6", "control signals": "0 of 18"}
{"CDR-H1": "GFDLNEYGIS", "CDR-H2": "VIYADGMRTFYADSVK", "CDR-H3": "GQLAGTFDV", "Kd": "63 pM", "detected": "6 of 6", "control signals": "0 of 18"}